According to US8030033B2, “Polymorphisms in ABCB1 associated with a lack of clinical response to medicaments” (priority 2004, dated 2011):

Tested on: p-glycoprotein (abcb1a and abcb1b)
Conditions: male, abcb1ab(-/-) on FVB/N background and FVB/N wildtype, mouse, in vivo, 11 days
Method: Venlafaxine and o-desmethylvenlafaxine (d-venlafaxine) was obtained from Wyeth-Pharma GmbH (Münster, Germany). […] Protriptyline was purchased from RBI (Massachusetts, USA). All other chemicals were obtained in the purest grade available from Merck (Darmstadt, Germany).
Male abcb1ab(−/−) mice and FVB/N wildtype mice were housed individually and maintained on a 12:12 h light/dark cycle (lights on at 07:00), with food and water ad libitum. Abcb1ab double knockout mice, originally created by A. Schinkel by sequential gene targeting in 129/Ola E14 embryonic stem cells^28 and backcrossed seven times (N7) to FVB/N from the C57BL/6×129 chimera, and FVB/N wildtype mice were received from Taconic (Germantown, USA; FVB/Tac-[KO]Pgy2 N7). A homozygous colony is maintained at the Max-Planck Institute of Psychiatry on the N7 FVB/N background through intercrossing of homozygous mice.
Experimental and extraction procedures were performed as described before^12,26. […] After 11 days, the mice were anesthetized and sacrificed. […]
HPLC measurements were performed as described before^12,26. A Beckman gradient pump, autoinjector, UV detector and a Merck fluorescence detector, were used for the high-performance liquid chromatography analysis. […] The substances were determined by UV absorption and fluorescence at the described wavelength (Table 3). […]

fold higher concentration in the brain of abcb1ab (-/-) mutant compared to wildtype animals (cerebrum/plasma ratio): 3 fold
Compound: CN(C)CCCC1(c2ccc(F)cc2)OCc2cc(C#N)ccc21 (stereo not shown) [citalopram]
